# Only a part is listed here, and it is no random draw. Some tests of the compounds listed are not included; inactive here does not mean inactive elsewhere. Calls of active or inactive are those of the source. Cut-off read from the data, not from the text of the source: active = inhibition above about 32%; inactive = the rest.
# Experiment: TEAD-YAP interaction inhibition, primary screen, TEAD-YAP interaction inhibitor project, luminescence, HEK-TIYL cells (AID 1259422);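 note: 0% = median of test compound wells and 100% = reference inhibitor wells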
# Conditions: TEAD-Gal4/YAP UAS-luciferase luminescence, at 9.12 µM, stronger effect = higher value
row,SMILES,inhibition
1,O=C(c1ccco1)N(Cc1ccco1)C1CCN(CCc2cccs2)CC1,inactive: 3.02%
2,CC(=O)N(Cc1cccnc1)C1CCN(CCc2cccs2)CC1,inactive: -3.58%

# Source: PubChem BioAssay AID1259422 (The Scripps Research Institute Molecular Screening Center, 2018)
